{"source": "patent US20160129155A1", "about": "“MUSCULOSKELETAL TISSUE FABRICATION” (University of Pittsburgh - Of the Commonwealth System of …, priority 2014, published 2016)", "key": {"SCID/J mice": {"tested_on": "SCID/J mice", "assay": "Intramuscular implantation, ectopic bone formation", "assay_type": "in vivo, mouse", "settings": "14, 28 (and 56) days post intramuscular implantation", "description": "To test in vivo bone formation, the bioactive scaffolds (2 groups) were individually implanted intramuscularly in both hind limbs in 2 month-old SCID/J mice. Ectopic bone formation was monitored biweekly using micro-computed tomography (micro-CT). Three-point bending tests were performed on the implants to estimate mechanical property of implants.\n(§1) Scaffold fabrication using VL-PSL was carried out as described herein. ALP staining and osteocalcin immunohistochemistry (IHC) analysis were performed. To test in vivo bone formation, the bioactive scaffolds (2 groups) were individually implanted intramuscularly in both hind limbs in 2 month-old SCID/J mice. Ectopic bone formation was monitored biweekly using micro-CT."}, "hBMSCs": {"tested_on": "hBMSCs", "assay": "In vitro osteogenesis of hBMSC-laden VL-PSL gelatin constructs (BMP-2 ELISA, ALP, osteocalcin IHC)", "assay_type": "cell-based, human", "settings": "in vitro culture, day 56", "description": "Scaffold 16 fabrication using VL-PSL can be carried out using lithium phenyl-2,4,6-trimethyl benzoylphosphinate (LAP) as a photoinitiator. Alkaline phosphatase (ALP) staining (Sigma) and osteocalcin immunohistochemistry (IHC) analysis can be performed.\nas §1"}}}
{"substance": "bone morphogenetic protein-2 [BMP-2 protein]", "values": [{"measurement": "micro-CT mineralized areas (ectopic bone)", "setting": "SCID/J mice", "value": "not seen"}, {"measurement": "ALP staining, osteocalcin immunostaining and osteogenesis", "setting": "hBMSCs", "value": "inferior and poor"}]}
